# Screening results from PubChem BioAssay.
# Hits are enriched below; roughly 16% of the tested compounds scored in any of these assays.
# DT40 TDP1 CPT = growth inhibition of DT40 Tdp1-/-;hTDP1 cells with camptothecin (screen for TDP1 inhibitors) | chicken DT40 Tdp1-/-;hTDP1 cells + 20 nM CPT, ATP luminescence, 48 h | 12% of 420,000 active | Potency, µM (titrated, usually from 46.2 µM), for the others: at the highest dose activity change, negative = growth inhibition, usual class: inhibitors; note: potency is the fitted concentration of half-maximal effect; % is set by controls: 0 for no effect and ±100 for the full control effect; nearly all actives have a fitted effect of over 55% in size
#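 Chicken DT40 Tdp1-/- cells complemented with human TDP1, 400 cells/well, exposed to compounds plus 20 nM camptothecin for at least 48 h at 37 C; viability read as ATP content by CellTiter-Glo luminescence.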
# uPA surface inh = blocks generation of uPA at the cell surface. cell surface uPA generation assay, qHTS. Potency, µM (doses to about 38.3 µM), inactives show top-dose activity change, negative = inhibition, most hits filed as inhibitors. 0.31% of 330,000 active; active = well fitted inhibition curve with a large enough effect; inconclusive = small, poorly fitted or top-dose-only effect; inactive = no such curve, though single readings can be large or run the other way; tested in mouse RAW 264.7 cells; note: potency is the fitted concentration of half-maximal effect; % is set by controls: 0 for no effect and ±100 for the full control effect; nearly all actives have a fitted effect of over 55% in size
# miR-21 reporter = miR-21 reporter, rising signal; HeLa miR-21 FLuc reporter, luciferase, 48 h; Potency, µM (titrated, usually from 38.3 µM), for the others: at the top dose reporter change, positive = more light; 340,000 tested, under 10 active; AID 2288; active = well fitted rising curve with a large enough effect; inconclusive = small, poorly fitted or top-dose-only effect; inactive = no such curve, though single readings can be large or run the other way;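 also: % of control where 0% means no effect; miR-21 action dims this reporter so a rising signal means less miR-21 action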
#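 HeLa cells stably expressing CMV-driven firefly luciferase with a downstream miR-21 binding sequence, endogenously expressing miR-21, were treated with titrations (up to about 40uM final) for 48 hours at 37 degree Celsius. Luciferase luminescence was read after lysis.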
# TDP1 block = TDP1 (human) enzyme inhibition. Potency, µM (titrated, usually from 130 µM), for the others: at the top dose activity change, negative = inhibition, hits mostly inhibitors. 0.28% of 350,000 active. recombinant TDP1, AlphaScreen DNA substrate cleavage; note: potency is the fitted concentration of half-maximal effect; % is set by controls: 0 for no effect and ±100 for the full control effect; nearly all actives have a fitted effect of over 40% in size
#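 AlphaScreen read-out: signal falls as enzyme removes the 3' tyrosine-FITC from a 5'-biotinylated DNA oligo (15 nM, 5 min, RT). Enzyme was E. coli-made recombinant Tdp1 at 1 nM, exposed to compound for 15 min beforehand; beads 10 ug/ml, 10 min.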
# DT40 TDP1 no CPT = qHTS for Inhibitors of human tyrosyl-DNA phosphodiesterase 1 (TDP1): qHTS in cells in absence of CPT; DT40 Tdp1-/- hTDP1 cells, no CPT, ATP luminescence, 48 h; Potency, µM (titrated, usually from 46.2 µM), without a hit: top-dose activity change, negative = growth inhibition, usual class: inhibitors; 15% of 420,000 active; note: potency is the fitted concentration of half-maximal effect; % is set by controls: 0 for no effect and ±100 for the full control effect; nearly all actives have a fitted effect of over 55% in size
#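 Growth of hTDP1-complemented DT40 Tdp1-knockout cells is measured by ATP luminescence after at least 48 hr compound exposure at 37 °C, with DMSO substituting for the 20 nM CPT used in the parallel screen.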
# Starred values were filed as active, the others as inactive; ? = inconclusive; · = no result; [ ] = another dose, or the depositor's remark. Unless noted, calls come from the whole dose curve; as a rule, active = well fitted curve in the direction sought with a large enough effect; inconclusive = small, poorly fitted or top-dose-only effect, or another doubt; inactive = no such curve, though single readings can be large; an effect the other way counts as inactive or inconclusive.
# Assay codes – A = DT40 TDP1 CPT; B = uPA surface inh; C = miR-21 reporter; D = TDP1 block; E = DT40 TDP1 no CPT
1	Cc1nn(Cc2ccccc2)c(C)c1C(=O)NCCN1C(=O)S/C(=C\c2ccccc2)C1=O
  A: 20.6µM* | B: -5.8% | C: -10.7% | D: -5.4% | E: ?
2	CCc1noc(C)c1C(=O)NCCN1C(=O)S/C(=C\c2ccccc2F)C1=O
  A: 18.4µM* | B: · | C: · | D: · | E: 18.4µM*
3	COc1cccc(N2CCN(C(=O)c3ccc4ccccc4c3)CC2)c1
  A: ? | B: -5.0% | C: · | D: 5.2%[0.505 µM] | E: ?
4	COc1cccc(N2CCN(C(=O)c3ccc(OC)c(S(=O)(=O)NC4CC4)c3)CC2)c1
  A: ? | B: · | C: · | D: · | E: 16.4µM*
5	COc1ccc(C(=O)N2CCN(c3cccc(C)c3C)CC2)cc1S(=O)(=O)NC1CC1
  A: ? | B: -7.0% | C: · | D: 0.0% | E: 23.1µM*
6	COc1ccc(C(=O)N2CCN(c3ccccc3Cl)CC2)cc1S(=O)(=O)NC1CC1
  A: ? | B: -5.0% | C: · | D: 4.5% | E: 4.11µM*
7	CCCC1(C(=O)O)NC(c2ccccc2O)C2C(=O)N(c3cccc(Cl)c3)C(=O)C21 (configuration not stated)
  A: 4.1% | B: 9.3% | C: 1.5% | D: -1.0% | E: -13.5%
8	O=C(Nc1ccccc1C(=O)OCc1cc(=O)n2c3c(sc2n1)CCCC3)c1ccccc1
  A: 20.6µM* | B: · | C: -5.1% | D: 3.8% | E: ?
9	COc1cccc(C(=O)Nc2ccccc2C(=O)OCc2cc(=O)n3c4c(sc3n2)CCCC4)c1
  A: ? | B: · | C: -9.5% | D: -1.2% | E: 16.4µM*
10	O=C1CC(=O)OC(c2ccc([N+](=O)[O-])cc2)O1
  A: 3.26µM* | B: · | C: · | D: · | E: 2.31µM*
11	CCN(CC)CCOC(=O)/C=C/c1ccccc1
  A: -11.3% | B: -0.3% | C: 2.4% | D: 5.5% | E: -1.3%
12	CCN(CC)CC(C)(C)C(=O)/C=C/c1ccc(/C=C/C(=O)C(C)(C)CN(CC)CC)cc1
  A: 0.517µM* | B: -5.6% | C: · | D: · | E: 0.411µM*
13	CCNS(=O)(=O)c1cccc(C(=O)c2c(C)cc3ccccn23)c1
  A: ? | B: -2.7% | C: -6.9% | D: 5.6% | E: 14.6µM*
14	Cc1cc2ccccn2c1C(=O)c1cccc([N+](=O)[O-])c1
  A: ? | B: 0.8% | C: 0.3% | D: 7.5% | E: ?
15	Cc1cc2ccccn2c1C(=O)c1ccccc1Br
  A: 16.4µM* | B: -8.9% | C: 20.3% | D: 2.1% | E: ?
16	Cc1cc2ccccn2c1C(=O)c1ccc(F)cc1
  A: -3.5% | B: -0.1% | C: 0.2% | D: 10.8% | E: ?
17	Cc1cc2ccccn2c1C(=O)c1ccc(S(=O)(=O)N(C)C)cc1
  A: 18.4µM* | B: -5.8% | C: 9.5% | D: 5.4% | E: 23.1µM*
18	COc1ccc(/C=N/n2cc(-c3ccccc3)nc2N)cc1
  A: 3.26µM* | B: -5.7% | C: -18.7% | D: 7.9% | E: 5.17µM*
19	COc1ccc(/C=N/n2cc(-c3ccc(OC)cc3)nc2N)cc1
  A: ? | B: -13.6% | C: -2.6% | D: 5.7% | E: ?
20	O=C1C2C(c3ccccc3)CC=CC2C(c2ccc(C(F)(F)F)cc2)N1Cc1ccccc1 (configuration not stated)
  A: · | B: · | C: · | D: 3.8% | E: ·
21	COC(=O)c1ccc(C2NC(=O)c3ccccc3O2)cc1 (configuration not stated)
  A: 16.7% | B: 0.1% | C: -4.8% | D: · | E: -6.7%
22	COc1ccc(C2/C(=C(/O)c3ccc(C)cc3)C(=O)C(=O)N2CCCN2CCOCC2)cc1 (configuration not stated)
  A: 9.9% | B: 25.2% | C: -4.5% | D: · | E: -2.9%
23	Cc1ccc(S(=O)(=O)c2c(C)cc(C)nc2N2CCCCC2)cc1
  A: 23.1µM* | B: · | C: 0.7% | D: 0.0% | E: 18.4µM*
24	Cc1ccc(S(=O)(=O)c2c(C)cc(C)nc2N2CCOCC2)cc1
  A: 6.3% | B: 3.5% | C: -2.5% | D: 5.9% | E: -16.1%
25	CCC(CC)NC(=O)c1cc2c(C)nn(Cc3ccccc3Cl)c2s1
  A: 23.1µM* | B: -3.3% | C: -22.8% | D: 6.5% | E: ?
26	Cc1nn(Cc2ccccc2Cl)c2sc(C(=O)Nc3nccs3)cc12
  A: -19.2% | B: 1.3% | C: -17.8% | D: 0.0% | E: ?
27	Cc1nn(Cc2ccccc2Cl)c2sc(C(=O)Nc3ccccc3N3CCOCC3)cc12
  A: 10.3µM* | B: -4.7% | C: ? | D: 3.2% | E: ?
28	COC(=O)c1cc(NC(=O)CN(C)Cc2ccccc2)cc(C(=O)OC)c1
  A: -14.6% | B: 2.0% | C: 5.4% | D: 5.7% | E: -8.3%
29	CC(=O)Oc1c(I)cc(I)cc1C(=O)Nc1ccc(Cl)cc1
  A: ? | B: -3.0% | C: ? | D: 4.6% | E: 20.6µM*
30	Cc1ccc(S(=O)(=O)N2CCC(=O)CC2c2ccccc2)cc1 (configuration not stated)
  A: -1.5% | B: 4.0% | C: · | D: · | E: -29.1%

# In another format: entries from further up
no.	molecule	DT40 TDP1 CPT	uPA surface inh	miR-21 reporter	TDP1 block	DT40 TDP1 no CPT
17	Cc1cc2ccccn2c1C(=O)c1ccc(S(=O)(=O)N(C)C)cc1	18.4µM*	-5.8%	9.5%	5.4%	23.1µM*
18	COc1ccc(/C=N/n2cc(-c3ccccc3)nc2N)cc1	3.26µM*	-5.7%	-18.7%	7.9%	5.17µM*
19	COc1ccc(/C=N/n2cc(-c3ccc(OC)cc3)nc2N)cc1	?	-13.6%	-2.6%	5.7%	?
20	O=C1C2C(c3ccccc3)CC=CC2C(c2ccc(C(F)(F)F)cc2)N1Cc1ccccc1 (configuration not stated)	·	·	·	3.8%	·

# Continuation.
# Assay codes – A = DT40 TDP1 CPT; B = uPA surface inh; C = miR-21 reporter; D = TDP1 block; E = DT40 TDP1 no CPT
31	C=C[C@@H]1c2cc(C)ccc2N(S(=O)(=O)c2ccc(C)cc2)[C@H](c2ccccc2)C1(C#N)C#N
  A: 7.94µM* | B: -22.3% | C: · | D: 0.3% | E: 10µM*
32	C=C[C@@H]1c2ccccc2N(S(=O)(=O)c2ccc(C)cc2)[C@H](c2ccccc2)C1(C#N)C#N
  A: 7.94µM* | B: 8.3% | C: · | D: 1.1% | E: 20.6µM*
33	C=C[C@@H]1c2cc(C)ccc2N(S(=O)(=O)c2ccc(C)cc2)[C@H](c2ccccc2C(F)(F)F)C1(C#N)C#N
  A: 8.2µM* | B: -15.5% | C: · | D: 1.9% | E: ?
34	Cc1ccc2c(c1)C1CN(C)CCC1N2S(=O)(=O)c1ccc(C(C)C)cc1 (configuration not stated)
  A: ? | B: -44.8% | C: · | D: 3.7% | E: ?
35	COc1ccccc1N1C(=O)CC(Sc2ncccc2C(=O)O)C1=O (configuration not stated)
  A: 0.3% | B: 0.2% | C: -4.9% | D: -2.4% | E: 8.1%
36	CC(C)(C)n1nnnc1C(c1cccc(C#N)c1)N1CCCCCC1 (configuration not stated)
  A: ? | B: 5.7% | C: -3.2% | D: 5.8% | E: 16.4µM*
37	COc1ccccc1C(c1nnnn1C(C)(C)C)N1CCCCCC1 (configuration not stated)
  A: 20.6µM* | B: -6.0% | C: -6.6% | D: 5.7% | E: 18.4µM*
38	CCC(C)(C)n1nnnc1C(c1cccc(C#N)c1)N1CCN(c2cccc(C)c2C)CC1 (configuration not stated)
  A: ? | B: 2.2% | C: 0.2% | D: 1.0% | E: 16.4µM*
39	O=[N+]([O-])c1cnc(Nc2ccc(Cl)cn2)c([N+](=O)[O-])c1
  A: ? | B: -5.3% | C: 5.7% | D: · | E: ?
40	COCCn1c(SCc2cnc(-c3ccccc3)s2)nnc1-c1ccncc1
  A: 20.6µM* | B: 2.7% | C: 6.4% | D: 6.3% | E: ?
41	COCCn1c(SCC#N)nnc1-c1ccccc1
  A: 1.1% | B: · | C: -5.9% | D: 5.8% | E: -12.7%
42	COc1ccc(NC(=O)N[C@@H](Cc2ccccc2)C(=O)NN)cc1
  A: 8.5% | B: 2.4% | C: 0.6% | D: · | E: -18.8%
43	Cc1cc(=O)n(Cc2cccc(F)c2)c2c1c(C)nn2-c1cccc(F)c1
  A: -12.9% | B: · | C: -1.2% | D: -5.8% | E: -0.7%
44	Cc1cc(=O)n(CC(=O)N2CCCc3ccccc32)c2c1c(C)nn2-c1cccc(F)c1
  A: 16.4µM* | B: · | C: -3.5% | D: 9.7% | E: ?
45	Cc1ccc(C)c(N2CCN(C(=O)Cn3c(C)c4cnn(-c5ccccc5)c(=O)c4c3C)CC2)c1
  A: 5.17µM* | B: · | C: ? | D: 5.1% | E: 2.91µM*
